{"source": "PubChem BioAssay AID651687", "about": "(Broad Institute, 2012)", "note": "The entries are a selection whose mix differs from that of the whole data set. Some salts or complexes appear as unconnected parts, following the source record. Active and inactive are the calls of the source.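 Rule for the calls: active = every replicate shows inhibition of at least 40%; inconclusive = mean inhibition at least 40% but some replicate below; inactive = the rest.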", "data": [{"assay": "compounds lowering acetylated PGC1a in cells – cell-based, U2OS, AlphaScreen, inhibitor mode, primary screen (AID 651687);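 note: 0% = neutral control wells and 100% = positive control wells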", "details": "U2OS PGC1a acetylation, AlphaScreen anti-acetyl-lysine; at 15.6 µM; active compounds read high; with virally co-expressed GCN5 acetyltransferase", "values": [{"smiles": "COc1ccccc1OP(C)(=O)Nc1ccc(C)c(C)c1", "note": "(stereo not drawn)", "inhibition": "inactive: -8.49%"}, {"smiles": "Cc1cc(C)cc(OP(C)(=O)Nc2cccc(C(F)(F)F)c2)c1", "note": "(stereo not drawn)", "inhibition": "inactive: -1.91%"}, {"smiles": "O=C1C(O)=C([N+](=O)[O-])C(=O)C(O)=C1[N+](=O)[O-]", "inhibition": "inactive: 5.12%"}, {"smiles": "COc1ccccc1OP(C)(=O)Nc1ccc(C)cc1C", "note": "(stereo not drawn)", "inhibition": "inactive: -5.2%"}, {"smiles": "CP(=O)(Nc1ccccn1)Oc1ccccc1", "note": "(stereo not drawn)", "inhibition": "inactive: -17.5%"}, {"smiles": "CCc1ccc(OP(C)(=O)O)cc1", "inhibition": "inactive: -1.18%"}, {"smiles": "O=[N+]([O-])c1cc([N+](=O)[O-])c(Nc2ccccn2)c([N+](=O)[O-])c1", "inhibition": "inactive: 6.39%"}, {"smiles": "COc1ccc(OP(C)(=O)Nc2ccccn2)cc1", "note": "(stereo not drawn)", "inhibition": "inactive: 8.72%"}, {"smiles": "CN(C)CCOC(=O)C(O)(c1ccccc1)C1CCCC1", "note": "(stereo not drawn)", "inhibition": "inactive: 0.135%"}, {"smiles": "COc1ccccc1OP(C)(=O)Nc1ccc(Br)cc1", "note": "(stereo not drawn)", "inhibition": "inactive: -3.86%"}, {"smiles": "COc1ccccc1OP(C)(=O)Nc1ccccc1Br", "note": "(stereo not drawn)", "inhibition": "inactive: 0.073%"}, {"smiles": "CC(C)(C)c1ccc(OP(C)(=O)O)cc1", "inhibition": "inactive: 8.62%"}, {"smiles": "CP(=O)(Nc1ccc(Cl)cc1)Oc1ccc(F)cc1", "note": "(stereo not drawn)", "inhibition": "inactive: 0.591%"}, {"smiles": "O=C(OCCCN1CCCC1)C(O)(c1ccccc1)C1CCCCC1", "note": "(stereo not drawn)", "inhibition": "inactive: -4.07%"}, {"smiles": "COc1ccccc1OP(C)(=O)Nc1c(C)n(C)n(-c2ccccc2)c1=O", "note": "(stereo not drawn)", "inhibition": "inactive: 2.61%"}, {"smiles": "CCc1ccc(OP(C)(=O)Nc2cccnc2)cc1", "note": "(stereo not drawn)", "inhibition": "inactive: 9.38%"}, {"smiles": "CP(=O)(Oc1ccccc1)N1CCOC1=O", "note": "(stereo not drawn)", "inhibition": "inactive: 4.24%"}, {"smiles": "COc1ccc(OP(C)(=O)Nc2ccc(Br)cc2)cc1", "note": "(stereo not drawn)", "inhibition": "inactive: -2.27%"}, {"smiles": "CCN(CC)CC(O)COC(=O)C(O)(c1ccccc1)C1CCCCC1", "note": "(stereo not drawn)", "inhibition": "inactive: -7.95%"}, {"smiles": "CCOC(=O)c1ccc(NP(C)(=O)Oc2ccc(Cl)cc2)cc1", "note": "(stereo not drawn)", "inhibition": "inactive: -6.82%"}, {"smiles": "CP(=O)(OC12CC3CC(CC(C3)C1)C2)OC12CC3CC(CC(C3)C1)C2", "inhibition": "inactive: -4.57%"}, {"smiles": "Cc1c(C(c2ccc3c(c2)OCO3)c2c(C)n(C)n(-c3ccccc3)c2=O)c(=O)n(-c2ccccc2)n1C.O=[N+]([O-])c1cc([N+](=O)[O-])c(O)c([N+](=O)[O-])c1", "inhibition": "inactive: -9.48%"}, {"smiles": "Cc1cc(-c2cccc3ccccc23)c(C)cn1.O=[N+]([O-])c1cc([N+](=O)[O-])c(O)c([N+](=O)[O-])c1", "inhibition": "inactive: -2.23%"}, {"smiles": "CN(C)CCOC(=O)C(O)(c1ccccc1)C1CCCCC1", "note": "(stereo not drawn)", "inhibition": "inactive: 2.32%"}, {"smiles": "COc1ccc(NP(C)(=O)Oc2ccccc2OC)cc1", "note": "(stereo not drawn)", "inhibition": "inactive: 17.9%"}, {"smiles": "COc1ccc(OP(C)(=O)Nc2cccc(Br)c2)cc1", "note": "(stereo not drawn)", "inhibition": "inactive: 11.9%"}, {"smiles": "Cc1ccccc1NP(C)(=O)Nc1ccccc1C", "inhibition": "inactive: 6.39%"}, {"smiles": "CP(=O)(Nc1ccc2c(c1)OCCO2)Oc1ccccc1", "note": "(stereo not drawn)", "inhibition": "inactive: 13.5%"}, {"smiles": "CCOP(C)(=S)SCC(=O)NC(C)(CC)C(=O)O", "note": "(stereo not drawn)", "inhibition": "inactive: -12.6%"}, {"smiles": "CP(=O)(Nc1ccc(SC(F)(F)F)cc1)Oc1ccc(F)cc1", "note": "(stereo not drawn)", "inhibition": "inactive: 8.13%"}, {"smiles": "COc1ccc2c(c1O)-c1c(O)c(OC)cc3c1[C@H](C2)[N+](C)(C)CC3.O=[N+]([O-])c1cc([N+](=O)[O-])c([O-])c([N+](=O)[O-])c1[O-]", "inhibition": "inactive: 12.7%"}, {"smiles": "CP(=O)(Nc1ccccc1F)Oc1ccccc1", "note": "(stereo not drawn)", "inhibition": "inactive: 7.82%"}, {"smiles": "O=[N+]([O-])c1cc([N+](=O)[O-])c(Nc2ccc(Cl)cc2)c([N+](=O)[O-])c1", "inhibition": "inactive: 6.63%"}, {"smiles": "CP(=O)(Nc1ccccc1)Oc1ccc(F)cc1", "note": "(stereo not drawn)", "inhibition": "inactive: -3.51%"}, {"smiles": "O=[N+]([O-])c1cc([N+](=O)[O-])c(OC2CCCCC2O)c([N+](=O)[O-])c1", "note": "(stereo not drawn)", "inhibition": "inactive: 6.28%"}, {"smiles": "CCCCCOc1ccc(NP(C)(=O)Oc2ccc(Cl)cc2Cl)cc1", "note": "(stereo not drawn)", "inhibition": "inactive: -3.88%"}, {"smiles": "Cc1c([N+](=O)[O-])cc([N+](=O)[O-])c(Br)c1[N+](=O)[O-]", "inhibition": "inactive: -0.105%"}, {"smiles": "CCN(CC)CCCOC(=O)C(O)(c1ccccc1)C1CCCCC1", "note": "(stereo not drawn)", "inhibition": "inactive: -1.44%"}, {"smiles": "COc1ccc(OP(C)(=O)Nc2ccc(SC(F)(F)F)cc2)cc1", "note": "(stereo not drawn)", "inhibition": "inactive: -10.1%"}, {"smiles": "CC1=NCCc2c1[nH]c1ccccc21.O=[N+]([O-])c1cc([N+](=O)[O-])c(O)c([N+](=O)[O-])c1", "inhibition": "inactive: -4.31%"}, {"smiles": "O=C(O)c1cccc(Nc2c([N+](=O)[O-])cc([N+](=O)[O-])cc2[N+](=O)[O-])c1", "inhibition": "inactive: 2.15%"}, {"smiles": "Cc1ccc(C)c(NP(C)(=O)Oc2ccccc2)c1", "note": "(stereo not drawn)", "inhibition": "inactive: 5.54%"}, {"smiles": "Cc1cc(C)cc(OP(C)(=O)Nc2ccccn2)c1", "note": "(stereo not drawn)", "inhibition": "inactive: 4.99%"}, {"smiles": "CP(=O)(Nc1cccc(Br)c1)Oc1ccccc1", "note": "(stereo not drawn)", "inhibition": "inactive: -22.2%"}, {"smiles": "Cc1cc(C)cc(OP(C)(=O)Nc2ccc(C)cc2C)c1", "note": "(stereo not drawn)", "inhibition": "inactive: 1.39%"}, {"smiles": "COc1ccccc1OP(C)(=O)Nc1cccc(Br)c1", "note": "(stereo not drawn)", "inhibition": "inactive: -6.08%"}, {"smiles": "O=[N+]([O-])c1cc([N+](=O)[O-])c(-c2cnn(-c3ccccc3)c2)c([N+](=O)[O-])c1", "inhibition": "inactive: 10.8%"}, {"smiles": "CN(Cc1cccnc1)C(=O)COc1ccc(Cl)c(Cl)c1.O=[N+]([O-])c1cc([N+](=O)[O-])c(O)c([N+](=O)[O-])c1", "inhibition": "inactive: 0.431%"}, {"smiles": "O=[N+]([O-])c1cc([N+](=O)[O-])c(-n2nnc3ccccc32)c([N+](=O)[O-])c1", "inhibition": "inactive: -2.95%"}, {"smiles": "CCCOc1ccc(NP(C)(=O)Oc2ccc(Cl)cc2)cc1", "note": "(stereo not drawn)", "inhibition": "inactive: 72.1%"}, {"smiles": "COc1ccccc1OP(C)(=O)Nc1c(C)cccc1C", "note": "(stereo not drawn)", "inhibition": "inactive: 10.2%"}, {"smiles": "CCOC(=O)C(CC)C1=NC(C)(C)Cc2ccccc21.O=[N+]([O-])c1cc([N+](=O)[O-])c(O)c([N+](=O)[O-])c1", "note": "(stereo not drawn)", "inhibition": "inactive: 4.34%"}, {"smiles": "CC1=C2N=C(C=C3N=C(C(C)=C4[N-][C@@](C)([C@@H]5N=C1[C@](C)(CCC(=O)NC[C@@H](C)OP(=O)([O-])O[C@H]1[C@@H](O)[C@@H](n6cnc7cc(C)c(C)cc76)O[C@@H]1CO)[C@H]5CC(N)=O)[C@@](C)(CC(N)=O)[C@@H]4CCC(N)=O)[C@@](C)(CC(N)=O)[C@@H]3CCC(N)=O)C(C)(C)[C@@H]2CCC(N)=O.[C-]#N.[Co+3]", "inhibition": "inactive: -2.84%"}, {"smiles": "CP(=S)(Nn1cnnc1)Oc1ccccc1", "note": "(stereo not drawn)", "inhibition": "inactive: 24.3%"}, {"smiles": "CP(=O)(Nc1ccccn1)Oc1ccc(Cl)cc1", "note": "(stereo not drawn)", "inhibition": "inactive: -16%"}, {"smiles": "CCOC(=O)c1ccc(NP(C)(=O)Oc2ccc(OC)cc2)cc1", "note": "(stereo not drawn)", "inhibition": "inactive: -6.63%"}, {"smiles": "O=[N+]([O-])c1cc([N+](=O)[O-])c(O)c([N+](=O)[O-])c1.c1ccc(Oc2ccncc2)cc1", "inhibition": "inactive: -9.84%"}, {"smiles": "CCOP(C)(=S)SCC(=O)NC(C)C(=O)O", "note": "(stereo not drawn)", "inhibition": "inactive: 4.58%"}, {"smiles": "CCc1ccc(OP(C)(=O)N2CCN(c3ccc([N+](=O)[O-])cc3)CC2)cc1", "note": "(stereo not drawn)", "inhibition": "inactive: -2.13%"}, {"smiles": "Cc1ccc(Nc2c([N+](=O)[O-])cc([N+](=O)[O-])cc2[N+](=O)[O-])cc1", "inhibition": "inactive: -12.6%"}, {"smiles": "CP(=O)(Nc1ccc(SC(F)(F)F)cc1)Oc1ccc(Cl)cc1", "note": "(stereo not drawn)", "inhibition": "inactive: -8.74%"}, {"smiles": "Cc1cc(C)cc(OP(C)(N)=O)c1", "note": "(stereo not drawn)", "inhibition": "inactive: -6.41%"}, {"smiles": "COc1ccc(OP(C)(=O)Nc2cccc(F)c2)cc1", "note": "(stereo not drawn)", "inhibition": "inactive: -0.503%"}, {"smiles": "COc1ccccc1OP(C)(=O)Nc1cc(Cl)ccc1C", "note": "(stereo not drawn)", "inhibition": "inactive: -5.91%"}, {"smiles": "Cc1ccc(NP(C)(=O)Oc2ccccc2)c(C)c1", "note": "(stereo not drawn)", "inhibition": "inactive: 48.1%"}, {"smiles": "COc1ccccc1OP(C)(=O)Nc1ccc(C)cc1", "note": "(stereo not drawn)", "inhibition": "inactive: 8.38%"}, {"smiles": "CCOC(=O)c1ccc(NP(C)(=O)Oc2ccccc2)cc1", "note": "(stereo not drawn)", "inhibition": "inactive: 24.3%"}, {"smiles": "Cc1cccc(C)c1OP(C)(N)=O", "note": "(stereo not drawn)", "inhibition": "inactive: -3.92%"}]}]}
